Measurements taken from ChEMBL document CHEMBL2176900, “Design and synthesis of a novel series of bicyclic heterocycles as potent γ-secretase modulators” (J Med Chem, 2012).

Assay: Binding affinity to P-glycoprotein assessed as efflux ratio

COc1nc(Nc2cccc3c2nc(-c2ccc(F)cc2)n3C)ccc1-n1cnc(C)c1
Ratio: 0.5
